Earlier results, collected in US5776927A, “Methionine sulfone and S-substituted cysteine sulfone derivatives as enzyme inhibitors” (Corvas International, Inc., priority 1994, dated 1998).

Biological target: human alphathrombin
Conditions: literature values (footnotes c, d of Table 4); cited from earlier work

In the case of `CC1CNc2c(cccc2S(=O)(=O)N[C@@H](CCCNC(=N)N)C(=O)N2CC[C@@H](C)C[C@@H]2C(=O)O)C1` (stereo partly drawn) [Argatroban, 2R,4R-4-methyl-1-[N-2-(3-methyl-1,2,3,4-tetrahydro-8-quinolinesulfonyl)-L-argininal]-2-piperdinecarboxylic acid], the Ki is listed as 19 nM.
